AlphaSeq binding of Ab-91 heavy chain variants to a spike HR2 peptide

Target: peptide PDVDLGDISGINAS, taken from heptad repeat 2 (HR2) of SARS-CoV-2 spike.

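The library (AAYL51) carries one to three amino acid substitutions per variant, with no insertions or deletions. Affinity was read by AlphaSeq, a pooled yeast mating assay with surface-displayed partners. After mating in shaken culture at 30 °C for 16 h, diploids were selected and their barcode pairs sequenced. Each replicate has its own calibration line, from reference interactions of the BCL2 family. Each pool was mated in three replicate cultures.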

Parent: Ab-91, a human scFv built as VL, a 15-residue (Gly4Ser)3 linker, VH. Only the CDRs of the heavy chain vary.
VL: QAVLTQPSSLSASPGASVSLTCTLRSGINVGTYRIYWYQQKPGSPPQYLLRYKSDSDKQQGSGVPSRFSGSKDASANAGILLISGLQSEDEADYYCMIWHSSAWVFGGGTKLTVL
VH: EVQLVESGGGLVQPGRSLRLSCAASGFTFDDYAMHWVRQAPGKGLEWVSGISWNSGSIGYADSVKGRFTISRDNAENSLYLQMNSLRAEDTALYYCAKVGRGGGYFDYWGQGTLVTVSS

Substitutions are numbered in sequence along the VH above, starting at 1 (not Kabat).
Values are log10 of the apparent Kd in nM; lower means stronger binding.
The mean shown is taken over the replicates in which the pair was detected.
Where no diploid with the target was found in that replicate, the entry reads "ND": below detection, most likely a poor binder, though not proof of it.

| changes | replicates, log10 nM | mean, log10 nM | empty controls |
|---|---|---|---|
| F29N D62E F106S | ND / ND / 2.49 | 2.49 | 0 of 9 |
| D30L G50N G102H | ND / ND / ND | ND | 2 of 9 (4.73) |
| Y32V G102A D107G | ND / ND / 4.13 | 4.13 | 2 of 9 (4.35) |
| G50H G100S | ND / ND / ND | ND | 1 of 9 (4.28) |
| G50W I51A D107E | 3.50 / 5.02 / ND | 4.26 | 2 of 9 (3.99) |
| S57T G100S F106M | 5.26 / ND / ND | 5.26 | 2 of 9 (4.00) |
| H35R Y60G D62A | ND / ND / ND | ND | 0 of 9 |
| D31Q F106M Y108C | 2.41 / 2.35 / 1.71 | 2.15 | 2 of 9 (4.72) |
| A33M D62S K65A | 5.50 / 6.11 / ND | 5.80 | 1 of 9 (4.73) |
| A33P D62M D107K | ND / ND / ND | ND | 0 of 9 |
| F29E K65I G103K | ND / ND / ND | ND | 0 of 9 |
| I58S S63C D107Y | ND / ND / ND | ND | 1 of 9 (2.64) |
| F29S H35T Y108N | ND / ND / 4.64 | 4.64 | 2 of 9 (5.02) |
| D30L G59D G102Y | ND / 5.02 / ND | 5.02 | 4 of 9 (4.31) |
| F29G S57T G102D | ND / 4.90 / 5.79 | 5.34 | 5 of 9 (5.45) |
| Y60F F106P Y108G | 4.26 / ND / ND | 4.26 | 0 of 9 |
| G50V G56H G100H | ND / ND / 4.88 | 4.88 | 2 of 9 (4.52) |
| A33H I51H S52Q | ND / ND / ND | ND | 0 of 9 |
| M34N D62R G100Y | ND / ND / ND | ND | 2 of 9 (4.20) |
| G50I S63C Y105M | ND / ND / ND | ND | 0 of 9 |
| D31G S57F Y60W | 4.50 / ND / 5.64 | 5.07 | 3 of 9 (4.48) |
| F29C N54Y G104E | 5.29 / 3.91 / ND | 4.60 | 3 of 9 (4.84) |
| D30C S63Y K65T | 2.44 / 3.55 / 4.06 | 3.35 | 3 of 9 (3.88) |
| D31A S52D | 1.50 / 1.43 / 0.91 | 1.28 | 3 of 9 (3.33) |
| G56S A61D G100C | 3.43 / 3.62 / 3.94 | 3.66 | 5 of 9 (4.66) |
| W53H G59Q S63D | 4.03 / 4.78 / ND | 4.41 | 1 of 9 (4.01) |
| I51A D107L | 5.18 / ND / ND | 5.18 | 3 of 9 (4.11) |
| Y32K G50I V64L | 4.96 / ND / ND | 4.96 | 3 of 9 (5.15) |
| A33L S55C | 4.97 / ND / ND | 4.97 | 2 of 9 (3.40) |
| G26R Y32V G56W | 5.60 / 5.11 / ND | 5.36 | 3 of 9 (4.75) |
| Y32R M34C W53G | ND / ND / ND | ND | 0 of 9 |

Repeated from above, the 3 best binders with a signal in all replicates:

| changes | replicates, log10 nM | mean, log10 nM | empty controls |
|---|---|---|---|
| D31A S52D | 1.50 / 1.43 / 0.91 | 1.28 | 3 of 9 (3.33) |
| D31Q F106M Y108C | 2.41 / 2.35 / 1.71 | 2.15 | 2 of 9 (4.72) |
| D30C S63Y K65T | 2.44 / 3.55 / 4.06 | 3.35 | 3 of 9 (3.88) |

Background: pairings of library AAYL51 with three empty control strains gave a value in 21% of cases (median 4.54, 5th percentile 3.26). Values in that range, when seen in few replicates, are hard to tell from nonspecific mating. Also given: how often the same scFv was detected with the empty control strains, with their mean in brackets.
For reference, the parent read 1.86 as the reference entry and 0.88 as a member of this library.

Reference: Engelhart et al. 2022, doi:10.1038/s41597-022-01779-4. File: FLAb, binding data.